## AlphaSeq binding of Ab-14 light chain variants to a spike HR2 peptide

The measurements come from Li et al. 2023 (doi:10.1038/s41467-023-39022-2) through the FLAb antibody collection.

Binding partner: SARS-CoV-2 spike HR2 peptide, sequence PDVDLGDISGINAS.

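These sequences belong to a second round, designed from the earlier measurements on random variants of the parent. Their group label is 14L_En_HC (En: ensemble of fine-tuned language models; HC: hill climbing; a sequence that several methods proposed may carry one label only). AlphaSeq pools MATa yeast showing the antibodies with MATalpha yeast showing the peptide. After mating in shaken culture at 30 °C for 16 h, diploids were selected and their barcode pairs sequenced. The ratio of observed to expected reads was calibrated, replicate by replicate, on BCL2-family standards whose Kd was known from biolayer interferometry. There are six technical replicates.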

Ab-14 is the parent antibody, in scFv form: VH, then three GGGGS repeats, then VL. The heavy chain is unchanged in all variants.
VH: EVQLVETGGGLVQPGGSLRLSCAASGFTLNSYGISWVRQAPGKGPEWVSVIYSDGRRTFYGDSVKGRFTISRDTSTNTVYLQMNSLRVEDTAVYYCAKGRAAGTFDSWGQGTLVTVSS
VL: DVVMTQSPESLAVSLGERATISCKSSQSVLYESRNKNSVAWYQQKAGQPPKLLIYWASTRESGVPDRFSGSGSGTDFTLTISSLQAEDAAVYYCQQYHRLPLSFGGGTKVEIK

Variants are written as CDR1, CDR2 and CDR3 of the light chain (limits as in the source). Parent: KSSQSVLYESRNKNSVA, WASTRES, QQYHRLPLS. Numbers give log10(Kd / nM), so 0 is 1 nM and 3 is 1 µM. Smaller is tighter. A pair that was not seen in that replicate is written "ND"; this usually means weak binding, but a binder can also be missed. The authors averaged sequences with at least three values out of six and counted those with two or fewer as poor binders. Empty control strains, which show no peptide, gave a signal in 4% of pairings with all light chain designs; the median was 2.64 and 95% of these signals were weaker than 1.59. No background was subtracted. The control count says in how many pairings with the empty strains this scFv gave a signal, with their mean in brackets. A sequence measured in both rounds can read differently, since the two assays cover different ranges. Of ten entries with the parent sequence, four were seen in most replicates (averages 0.34 to 2.37), three in one and three in none, so single entries are noisy.

| CDR-L1 | CDR-L2 | CDR-L3 | log10 Kd, replicates | empty controls |
|---|---|---|---|---|
| MFSQSVLYESVMKNNVA | QTSTRES | QQYDHLPLS | 0.89 / 1.01 / 0.53 / 0.77 / 0.44 / 0.69 | 0 of 18 |
| KLYQNVGTMTHNKQSIA | DMERRED | QQYHRLPLS | 0.41 / 0.18 / 0.28 / 0.25 / 0.19 / 0.45 | 0 of 18 |
| IISQSVMFEQTLINSVA | NAQTRET | QQYHRLPLS | 1.61 / 1.40 / 0.45 / 0.55 / 0.56 / 0.97 | 1 of 18 (1.36) |
| KISMLYNFATTNKNSIA | EMTTRES | QHYHRLPLS | ND / 1.34 / 1.33 / 1.52 / ND / 2.27 | 1 of 18 (1.98) |
| TISQSMNMTSHGRNSVA | QAEMRES | QQYDRLPLS | 1.40 / 0.78 / 0.74 / 1.09 / 1.25 / 1.37 | 1 of 18 (3.33) |
| KIYAATMLESHDKNSIA | DLTTRGN | QQYHRLPLS | 0.75 / 1.03 / 0.82 / 0.93 / 0.88 / 0.61 | 0 of 18 |
| TIGQMFNGESRNRNSVA | QASTRNS | QSYDRLPLS | 0.22 / 0.32 / 0.22 / 0.00 / 0.12 / 0.44 | 1 of 18 (3.94) |
| TISQSAQQESHNKNSVA | DLNMRGS | QQYDRLPLS | 0.57 / 0.35 / 0.59 / 0.66 / 0.73 / 0.85 | 2 of 18 (3.10) |
| KISQLVNFLGKNKNSVA | QMSTRET | QQYDRLPLS | 0.38 / 0.37 / 0.34 / 0.20 / 0.19 / 0.41 | 2 of 18 (2.89) |
| TISQSALMTGLNRNSVA | QAEERIE | QQYHRLPLS | 0.53 / 0.41 / 0.50 / 0.26 / 0.30 / 0.21 | 0 of 18 |
| KISMMYRFESTASNSIA | EMTTRAE | QSYHRLPLS | 1.27 / 0.80 / 0.22 / 0.11 / 0.43 / 0.55 | 1 of 18 (2.82) |
| QLLMATMQGTYNRNSVA | HAQVRND | QSYHRLPLS | ND / 2.04 / ND / 3.35 / ND / 2.19 | 0 of 18 |
| NVGQSMDGVSRNKNSVA | HQSTRED | QHYHRLPLS | 0.51 / 0.10 / 0.08 / 0.35 / 0.13 / 0.69 | 1 of 18 (2.70) |
| IITQSVMTESKNKRNVA | NTSEREP | QQYDRLPLI | 0.92 / 0.43 / 0.52 / 0.58 / 0.50 / 0.83 | 0 of 18 |
| KISQLVNFLGKGKNSVA | QMSTREE | QQYDRLPLS | 0.54 / 0.27 / 0.74 / 0.23 / 0.21 / 0.41 | 1 of 18 (2.20) |
| KLSMMVDYVSATHSSVA | QTSTREE | QQYHRLPLS | 0.98 / 0.42 / 0.91 / 0.35 / 0.75 / 0.87 | 0 of 18 |
| KISQATNYLSRVMNSVA | DNSTRGS | QQYFRLPLS | 0.54 / 0.00 / 0.41 / 0.04 / 0.18 / 0.38 | 1 of 18 (1.55) |
| MISMMVGTKGYNKNSVA | NAETRED | QQYHRLPLS | 1.00 / 1.35 / 1.36 / 1.06 / 1.75 / 1.12 | 1 of 18 (1.87) |
| MLSDLVKVGSRNTNSVA | DNSTRGS | QQYDRLPLS | -0.34 / 0.68 / -0.06 / 0.24 / 0.17 / 0.14 | 0 of 18 |
| HISQSVGMTSFHKNSVA | ENSTRED | QQYDRLPLS | 1.45 / 0.93 / 1.27 / 1.42 / 1.73 / 1.35 | 2 of 18 (3.19) |
| KLSISGLHSSIDKKSIA | ERSTREN | QQYHRLPLS | 0.75 / 0.87 / 0.58 / 0.54 / 0.86 / 0.84 | 1 of 18 (2.04) |
| TLSDSVKMESRNTNSVA | DNSTRGS | QQYDRLPLS | ND / 1.85 / ND / ND / ND / ND | 0 of 18 |
| KIGQMVTGESHNKNSIA | QMTTREG | QQYHRLPLS | 1.61 / 1.62 / 1.44 / 2.06 / 1.37 / 2.14 | 1 of 18 (3.57) |
| KLLQEVGGRSQNRNSVA | HNSTRED | QQYDRLPLI | 2.69 / ND / ND / 2.53 / ND / ND | 1 of 18 (4.75) |
| IITQSVMQESRNKSNVA | NTSEREP | QQYDRLPLI | 2.19 / 1.54 / 1.30 / 1.36 / 2.56 / 2.48 | 1 of 18 (2.52) |
| MLSDLVKLGSRNTNSVA | DNSTRGS | QQYDRLPLS | 1.50 / 2.04 / 2.44 / 2.14 / 2.04 / 2.44 | 4 of 18 (2.81) |
| SIGQLVGYGQRNKNSVA | QMSTREN | QQYDRLPLS | -0.07 / 0.77 / -0.78 / -0.62 / -0.22 / -0.39 | 0 of 18 |
| MISQSFLTGMKAKNSVA | QTNTREE | QQYDRLPLI | 1.06 / 0.19 / 0.58 / 0.44 / 0.88 / 0.39 | 5 of 18 (3.13) |
| MMSMGYLGGMRAKNNVA | QEETREK | QQYHRLPLI | 2.30 / 1.92 / 1.50 / 3.13 / ND / 1.51 | 0 of 18 |
| RLSESAHFESRKKNSVA | ENSTRES | QQYDHLPLS | ND / ND / 2.05 / 3.09 / 2.72 / ND | 1 of 18 (3.08) |
| SLMQVGGYESNQHNSIA | DLRTRES | QQYHRLPLS | 0.63 / 0.41 / 0.45 / 0.34 / 0.68 / 0.32 | 1 of 18 (3.13) |

The 4 strongest on average among those seen in every replicate, once more:

| CDR-L1 | CDR-L2 | CDR-L3 | log10 Kd, replicates | empty controls |
|---|---|---|---|---|
| SIGQLVGYGQRNKNSVA | QMSTREN | QQYDRLPLS | -0.07 / 0.77 / -0.78 / -0.62 / -0.22 / -0.39 | 0 of 18 |
| MLSDLVKVGSRNTNSVA | DNSTRGS | QQYDRLPLS | -0.34 / 0.68 / -0.06 / 0.24 / 0.17 / 0.14 | 0 of 18 |
| TIGQMFNGESRNRNSVA | QASTRNS | QSYDRLPLS | 0.22 / 0.32 / 0.22 / 0.00 / 0.12 / 0.44 | 1 of 18 (3.94) |
| KISQATNYLSRVMNSVA | DNSTRGS | QQYFRLPLS | 0.54 / 0.00 / 0.41 / 0.04 / 0.18 / 0.38 | 1 of 18 (1.55) |